Laboratory results as given in publication PMC9871955, “High-throughput screening of SARS-CoV-2 main and papain-like protease inhibitors” (Protein & Cell, 2022).

Target: SARS-CoV-2 M^pro (Severe acute respiratory syndrome coronavirus 2, UniProt P0DTD1)
Assay: biochemical
Assay type: biochemical

Row | SMILES | IC50 (IC50 (μM) at S/KM 1/2) | IC50 (IC50 (μM) at S/KM 2)
1 | O=C(NCc1n[nH]c(=S)n1-c1ccc(Br)cc1)c1ccc(Cl)cc1Cl [JK0108-D008] | 1.7 ± 0.93 µM | –
2 | COc1ccc(-n2c(CNC(=O)COc3ccc(Cl)cc3Cl)n[nH]c2=S)cc1 [JK0109-B011] | – | 3.37 ± 0.84 µM
3 | COc1ccc(-n2c(S)nnc2CNC(=O)c2cc(OC)c(OC)c(OC)c2)cc1 [JK0109-C011] | – | 17.8 ± 3.25 µM
